AlphaSeq binding of Ab-14 heavy chain variants to a spike HR2 peptide

The target is the same throughout: PDVDLGDISGINAS, from the HR2 region of SARS-CoV-2 spike.

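These sequences belong to a second round, designed from the earlier measurements on random variants of the parent. Several design methods are mixed in this list. In AlphaSeq, yeast of one mating type display the scFv and yeast of the other type display the target. The frequency of each diploid, read from paired DNA barcodes, reflects how well the two displayed proteins bind. Scores were corrected for input abundance and mapped to Kd with protein pairs of known affinity run in the same pool. Mating was done six times.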

Each scFv is VH, the linker GGGGSGGGGSGGGGS, VL, as in the parent Ab-14, and differs from it in the CDRs of the heavy chain only.
VH: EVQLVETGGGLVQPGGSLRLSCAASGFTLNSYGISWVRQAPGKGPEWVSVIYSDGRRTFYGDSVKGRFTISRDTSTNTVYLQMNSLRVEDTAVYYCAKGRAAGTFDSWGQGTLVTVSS
VL: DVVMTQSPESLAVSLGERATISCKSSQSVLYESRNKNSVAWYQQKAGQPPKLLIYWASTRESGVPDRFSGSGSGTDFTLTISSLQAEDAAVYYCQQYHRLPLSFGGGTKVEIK

Variants are written as CDR1, CDR2 and CDR3 of the heavy chain (limits as in the source). Parent: GFTLNSYGIS, VIYSDGRRTFYGDSVK, GRAAGTFDS.
This list holds designs with at most six substitutions.
Scale: log10 of Kd in nM, estimated from mating counts; low values are strong binders.
The mean shown is taken over the replicates in which the pair was detected.
A pair that was not seen in any replicate is written "no signal"; this usually means weak binding, but a binder can also be missed.
A sequence measured in both rounds can read differently, since the two assays cover different ranges.
Nonspecific signal, from three strains lacking the peptide, appeared in 1% of pairings of all heavy chain designs, centred on 2.08 (5% of these signals below 0.84); values are not corrected for it. Also given: how often the same scFv was detected with the empty control strains.
Of ten entries with the parent sequence, four were seen in most replicates (averages 0.34 to 2.37), three in one and three in none, so single entries are noisy.
The authors averaged sequences with at least three values out of six and counted those with two or fewer as poor binders.
Some sequences occur more than once in the pool; their replicates are pooled.

The variant GFTLNSYGIS / VIYSDGRRTFYSDSVK / GVAGGTFDQ showed 0.29 (1 of 6 replicates; controls 0 of 18). The variant GFDLNSYGIS / VIYSDGRRTFYGDSVK / GKTAGTFDK gave 0.11 (6 of 6 replicates; controls 0 of 18). With GFDLNEYGIS / VIYADGRRTFYIDSVK / GNNAGTFDS the result was -0.44 (6 of 6 replicates; controls 0 of 18). With GFDLNSYGIS / VIYSDGRRTAYKDSVK / GRAAGTFDS the result was 0.66 (6 of 6 replicates; controls 0 of 18). With GFSLNSYGIS / VIYSDGRRTFYSDSVK / GEAAGTFDN the result was 0.15 (6 of 6 replicates; controls 1 of 18). For GFSLNEYGIS / VIYSDGRRTFYMDSVK / GRAAGTFDS, the assay gave 0.72 (6 of 6 replicates; controls 0 of 18).

For KFSLNSYGIS / VIYSDGRRTFYADSVK / GKAAGTFDS, the assay gave 1.43 (6 of 6 replicates; controls 0 of 18). The variant GFTLNQYGIS / VIYSDGRRTFYADSVK / GKAAGTFDS showed 2.78 (2 of 6 replicates; controls 0 of 18). With GFSLNSYGIS / VIYSDGRRTFYGDSVK / GEAAGTFDR the result was 0.51 (6 of 6 replicates; controls 0 of 18). The variant GFTLNEYGIS / VIYSDGHRTFYGDSVK / GSAAGTFSC gave no signal (0 of 6 replicates; controls 0 of 18). With GFELNSYGIS / VIYSDGRRTFYGDSVK / GNTAGTFDT the result was -0.11 (6 of 6 replicates; controls 0 of 18). With GFTLNSYGIS / VIYADGRRTFYGDSVK / GRLAGTNKS the result was no signal (0 of 6 replicates; controls 0 of 18).

The variant GFTLNEYGIS / VIYSDGRRTMYSDSVK / GRAPGTFDS gave 1.15 (3 of 6 replicates; controls 1 of 18). With GFELNSYGIS / VIYSDGRRTFYTDSVK / GTAAGTFDS the result was no signal (0 of 6 replicates; controls 0 of 18). For GFTLNSYGIS / VIYSDGRRTFYGDEVK / GRLAGTFDL, the assay gave 1.48 (10 of 24 replicates; controls 0 of 72). The variant GFSLNSYGIS / VIYSDGRRTFYGDSVK / GRVAGTFDT gave 0.31 (6 of 6 replicates; controls 0 of 18). With GFTLNEYGIS / VIYSDGRRTFYTDSVK / GRCAGTFDE the result was 2.46 (3 of 6 replicates; controls 0 of 18). The variant GFSLNSYGIS / VIYSDGRRTFYSDSVK / GEAGGTFDS gave no signal (0 of 6 replicates; controls 0 of 18).

The variant GFHLNDYGIS / VIYSDGRRTFYSDSVK / GRAKGTFDS gave no signal (0 of 6 replicates; controls 0 of 18). The variant GFSLNSYGIS / VIYSDGRRTFYGDNVK / GQTAGTFDK showed 0.58 (6 of 6 replicates; controls 0 of 18). The variant GFSLNSYGIS / VIYSDGRRTFYTDSVK / GEAAGTFDK gave 1.00 (6 of 6 replicates; controls 0 of 18). The variant GFTLNNYGIS / VIYSDGRRTFYMDSVK / GRAAGTFDS gave 2.15 (2 of 6 replicates; controls 0 of 18). With KFTLNSYGIS / VIYSDGRRTAYGDSVK / GRAAGTFTS the result was no signal (0 of 6 replicates; controls 0 of 18). The variant GFNLNSYGIS / VIYSDGYRTFYGDSVK / GRAAGTFDS gave 1.43 (5 of 6 replicates; controls 0 of 18).

The variant GFTLNSYGIS / VIYSDGRKTFYDDSVK / GQVAGTFDS showed 1.05 (6 of 6 replicates; controls 0 of 18). With GFSLNDYGIS / VIYSDGRRTFYGDSVK / GRAALTFDG the result was no signal (0 of 6 replicates; controls 0 of 18). For GFTLNDYGIS / VIYSDGRRTQYIDSVK / GRAAGTFTS, the assay gave no signal (0 of 6 replicates; controls 0 of 18). The variant GFTLNDKGWS / VIYSDGRRTQYIDSVK / GRAAGTFDS showed 1.64 (2 of 6 replicates; controls 0 of 18). With GFTLNMYGIS / VIYSDGRRTFYTDSVK / GRAAGTFDS the result was 2.06 (2 of 6 replicates; controls 0 of 18). With GFDLNEYGIS / VIYSDGRRTFYGDSVK / GSAAGTFDS the result was -0.29 (6 of 6 replicates; controls 0 of 18).

For GFSLNSYGIS / VIYADGRRTFYGDNVK / GEAAGTFKS, the assay gave -0.25 (6 of 6 replicates; controls 1 of 18). With GFTLNDYGIS / VIYSDGRRTQYIDSVK / GRAAGTFMS the result was no signal (0 of 6 replicates; controls 0 of 18). The variant GFELNSYGIS / VIYSDGRRTFYSDSVK / GNAAGTFDS gave 1.83 (6 of 6 replicates; controls 0 of 18). For GFSLNDYGIS / VIYSDGRRTFYGDSVK / GRCAGTFDS, the assay gave -0.89 (6 of 6 replicates; controls 0 of 18). The variant GFNLNSYGIS / VIYSDGRRTFYTDRVK / GEAAGTFDS showed 2.27 (6 of 6 replicates; controls 0 of 18). The variant GFTLNSYGIS / VIYSDGRRTFYGDSVK / GIAAGTFDS showed 2.64 (6 of 6 replicates; controls 1 of 18).

With GFTLNSYGIS / VIYSDGKRTFYSDSVK / GKAAGTFDW the result was no signal (0 of 6 replicates; controls 0 of 18). With GFTLNSYGIS / VIYSDGQRTFYSDSVK / GREAGTFDS the result was 0.21 (6 of 6 replicates; controls 0 of 18). The variant GFTLNEYGIS / VIYSDGRRTFWGDSGK / GRAAVTFDQ gave no signal (0 of 6 replicates; controls 0 of 18). For WFTLESYGIS / VIYADGRRTFYGDSVK / GRAAGTFKS, the assay gave no signal (0 of 6 replicates; controls 0 of 18). With GFTLNSYGIS / VIYSDGLRTFYGDAVK / GRHAGTFDS the result was 1.09 (6 of 6 replicates; controls 0 of 18). For GFTLNNYGIS / VIYSDGRRTFYGDSVK / GREAGTFDS, the assay gave 0.17 (5 of 6 replicates; controls 0 of 18).

For GFTLNEYGIS / VIYSDGRPTFYGKSVK / GRAAVTFDQ, the assay gave no signal (0 of 6 replicates; controls 0 of 18).

The first 5 variants above that were never detected:

CDR-H1	CDR-H2	CDR-H3	mean log10 Kd (nM)	seen in	empty controls
GFTLNEYGIS	VIYSDGHRTFYGDSVK	GSAAGTFSC	no signal	0 of 6	0 of 18
GFTLNSYGIS	VIYADGRRTFYGDSVK	GRLAGTNKS	no signal	0 of 6	0 of 18
GFELNSYGIS	VIYSDGRRTFYTDSVK	GTAAGTFDS	no signal	0 of 6	0 of 18
GFSLNSYGIS	VIYSDGRRTFYSDSVK	GEAGGTFDS	no signal	0 of 6	0 of 18
GFHLNDYGIS	VIYSDGRRTFYSDSVK	GRAKGTFDS	no signal	0 of 6	0 of 18

From the AlphaSeq antibody data of Li et al. 2023 (doi:10.1038/s41467-023-39022-2), copy in the FLAb collection.